Assay results taken from patent publication EP1976513B1.

By UniProt entry, the sequences of proteins in these tests, tags left out.
UniProt P31645, whole entry: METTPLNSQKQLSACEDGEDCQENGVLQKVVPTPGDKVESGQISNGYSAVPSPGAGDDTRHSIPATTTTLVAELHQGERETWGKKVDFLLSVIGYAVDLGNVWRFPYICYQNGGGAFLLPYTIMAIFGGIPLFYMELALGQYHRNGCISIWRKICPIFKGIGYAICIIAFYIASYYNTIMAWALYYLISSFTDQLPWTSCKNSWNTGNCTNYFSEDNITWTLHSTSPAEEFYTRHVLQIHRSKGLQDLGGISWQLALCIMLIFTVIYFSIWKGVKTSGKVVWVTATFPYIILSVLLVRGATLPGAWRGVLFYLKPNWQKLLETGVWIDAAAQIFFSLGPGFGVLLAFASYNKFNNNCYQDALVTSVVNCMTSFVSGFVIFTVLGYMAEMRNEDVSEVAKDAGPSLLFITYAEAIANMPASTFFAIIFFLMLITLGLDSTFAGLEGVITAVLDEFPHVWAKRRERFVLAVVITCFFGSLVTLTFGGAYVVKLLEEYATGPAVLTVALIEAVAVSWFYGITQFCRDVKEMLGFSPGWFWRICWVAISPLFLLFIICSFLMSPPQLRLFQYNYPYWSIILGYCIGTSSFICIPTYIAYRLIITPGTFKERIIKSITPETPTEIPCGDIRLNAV
UniProt Q01959, whole entry: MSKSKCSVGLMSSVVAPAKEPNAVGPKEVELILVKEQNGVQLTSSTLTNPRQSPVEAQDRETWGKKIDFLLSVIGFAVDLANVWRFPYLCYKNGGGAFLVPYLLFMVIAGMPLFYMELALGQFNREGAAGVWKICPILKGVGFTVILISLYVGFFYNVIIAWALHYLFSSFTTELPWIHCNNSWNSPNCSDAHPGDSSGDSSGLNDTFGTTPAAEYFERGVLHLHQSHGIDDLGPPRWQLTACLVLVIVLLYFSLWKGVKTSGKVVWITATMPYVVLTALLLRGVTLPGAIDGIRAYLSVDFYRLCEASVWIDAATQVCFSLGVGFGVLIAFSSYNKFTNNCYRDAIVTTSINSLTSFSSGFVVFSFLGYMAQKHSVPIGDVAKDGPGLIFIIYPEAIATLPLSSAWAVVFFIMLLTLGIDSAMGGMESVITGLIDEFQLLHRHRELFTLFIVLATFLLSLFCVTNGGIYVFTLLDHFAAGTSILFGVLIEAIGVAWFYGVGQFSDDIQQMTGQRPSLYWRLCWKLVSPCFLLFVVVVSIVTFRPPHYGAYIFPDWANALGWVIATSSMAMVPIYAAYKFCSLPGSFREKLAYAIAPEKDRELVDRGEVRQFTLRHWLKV

Key:
[1] = target: human serotonin reuptake transporter (Homo sapiens, UniProt P31645); settings: read-out: Human IC50 (nM) hSERT; recombinant human serotonin transporter (SERT)
[2] = target: human dopamine reuptake transporter (Homo sapiens, UniProt Q01959); settings: read-out: Human IC50 (nM) hDAT; recombinant human dopamine transporter (DAT)

## CN1CCN(C(=O)C2(c3ccc(Cl)c(Cl)c3)CCCCC2)CC1
[1]
  IC50: > 10000 nM
[2]
  IC50: 76 nM
